# Literature values, collected in patent US20250127175A1, “ANTIMICROBIAL POLYMER COMPOSITIONS, ANTIMICROBIAL POLYMER ARTICLES, AND METHODS OF MAKING THE SAME” (CORNING INCORPORATED, priority 2021, published 2025).
# Details: water-soluble defined as minimum of 20 grams in 100 milliliters of water at 25° C.
compound,measurement,value
CCCCn1cc[n+](C)c1.[Br-] [1-butyl-3-methylimidazolium bromide],water solubility (in words),water soluble
